Measured values taken from patent US8202902B2.

Key:
[1] = test system: XIAP stably transfected Jurkat leukemia cell line (XIAP-JK) and vector control cell line (VEC-JK); experiment: XIAP-overexpressing Jurkat cells, Smac mimetics with TNFα
[2] = test system: MDA-MB-231 and SK-OV-3 cancer cell lines; experiment: Role of caspase-8, -3 and -9 (siRNA, caspase inhibitors) in activity of Smac mimetics
[3] = test system: HCT116 XIAP^+/+ and XIAP^−/− isogenic cell lines; experiment: HCT116 XIAP+/+ and XIAP-/- isogenic cell lines, Smac mimetics with TNFα; format: cell-based; conditions: for caspase-3 activation, PARP cleavage and cell growth inhibition: 100-1,000 nM with exogenous TNFα
[4] = test system: Sensitive cancer cell lines; experiment: Secreted TNFα in cell culture medium (ELISA), sensitive lines
[5] = test system: sensitive cell lines (MDA-MB-231, SK-OV-3); experiment: cIAP-1/2 removal and apoptosis induction by SM-122; conditions: 100 nM
[6] = test system: sensitive cancer cell lines (MDA-MB-231, MALME-3M, SK-OV-3); experiment: XIAP knockdown by siRNA with exogenous TNFα, cell death; conditions: presence of exogenous TNFα
[7] = test system: MDA-MB-231 xenograft tumor tissues; experiment: cIAP-1 degradation and apoptosis in MDA-MB-231 xenograft tumor and normal tissues; format: in vivo, mice
[8] = test system: cIAP-1 in cancer cell lines; experiment: Induction of cIAP-1 degradation in cancer cells; format: cell-based
[9] = test system: resistant cancer cell lines (MDA-MB-453 breast, DU-145 prostate, MDA-MB-435 melanoma); experiment: Secreted TNFα in cell culture medium (ELISA), resistant lines
[10] = test system: MDA-MB-231, MALME-3M and SK-OV-3 cell lines; experiment: Cell death induction with TNFα or TRAIL neutralizing antibody
[11] = 100 and 1,000 nM, XIAP-JK cells

CN[C@@H](C)C(=O)N[C@H]1CCCC[C@H]2CC[C@@H](C(=O)NC(c3ccccc3)c3ccccc3)N2C1=O
apoptosis induction in combination with TNFα [1, 11]: ineffective in induction of apoptosis | cIAP-1 degradation [1, 11]: efficiently and rapidly degraded cIAP-1 | sensitivity in combination with TNFα ([1]; VEC-JK cell line): sensitive | sensitivity in combination with TNFα ([1]; XIAP-JK cell line): extremely resistant | effect of knockdown of caspase-3 and -8 on activity [2]: markedly attenuated | effect of knockdown of caspase-9 on activity [2]: minimal effect | caspase-3 activation, PARP cleavage and cell growth inhibition ([3]; XIAP+/+ cell line): modest effect | caspase-3 activation, PARP cleavage and cell growth inhibition ([3]; XIAP-/- cell line): highly effective | cIAP-1 degradation ([3]; 100-1,000 nM, both cell lines): effectively induced cIAP-1 degradation | sensitivity as a single agent ([3]; both cell lines): resistant | secretion of TNFα [4]: further enhanced | apoptosis induction [5]: minimal apoptosis | levels of cIAP-1 and cIAP-2 [5]: markedly decreased | effect of exogenous TNFα on cell killing ([5]; excess exogenous TNFα): minimal effect | sensitization by knockdown of XIAP [6]: dramatically sensitized | PARP cleavage in tumor tissues ([7]; single dose 100 mg/kg iv): minimal effect | cIAP-1 degradation in tumor tissues ([7]; single dose 100 mg/kg iv): effectively induces cIAP-1 degradation | near maximum tolerated dose ([7]; single dose iv): 100 mg/kg | cIAP-1 level / degradation ([8]; 10-100 nM, sensitive cancer cell lines): effectively induced degradation of cIAP-1 | cIAP-1 degradation ([8]; resistant cancer cell lines): rapid cIAP-1 degradation | induction of TNFα [9]: failed to induce detectable levels of TNFα | cell death induction in presence of neutralizing antibodies [10]: effectively blocked by a TNFα, but not by a TRAIL, neutralizing antibody
